{"source": "patent US10196693B2", "about": "“Method for predicting response to breast cancer therapeutic agents and method of treatment of breast cancer” (MEDIVATION PROSTATE THERAPEUTICS, LLC, priority 2014, dated 2019)", "key": {"MDA-MB-436 cells": {"system": "MDA-MB-436 cells", "assay": "cells", "settings": "Homo sapiens, MDA-MB-436, read-out: Paclitaxel IC50"}, "MDA-MB-453 cells": {"system": "MDA-MB-453 cells", "assay": "cells", "settings": "Homo sapiens, MDA-MB-453, read-out: Paclitaxel IC50"}}, "note": "pIC50: −log10 of the molar value.", "data": [{"compound": "CC(=O)O[C@H]1C(=O)[C@@]2(C)[C@H]([C@H](OC(=O)c3ccccc3)[C@]3(O)C[C@H](OC(=O)[C@H](O)[C@@H](NC(=O)c4ccccc4)c4ccccc4)C(C)=C1C3(C)C)[C@]1(OC(C)=O)CO[C@@H]1C[C@@H]2O", "note": "[paclitaxel]", "values": [{"measurement": "pIC50", "setting": "MDA-MB-436 cells", "value": 8.17}, {"measurement": "pIC50", "setting": "MDA-MB-453 cells", "value": 7.68}]}]}
